The entries are a selection whose mix differs from that of the whole data set. Active and inactive are the calls of the source.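 The calls were made as follows: active = activation above the screen-wide mean of compound activation plus 3 SD (cut at about 130% in these data); inactive = the rest.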
experiment: IL-6 driven STAT3 reporter potentiators, primary screen, U3A cells, luciferase, luminescence, MLSCN library (AID 871); conditions: IL-6 STAT3-luciferase reporter, at 5.6 µM, active compounds read high, 100% = signal with IL-6 EC80 alone;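 also: 0% = background luminescence of wells with medium and substrate only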
Outline: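 Detection: reporter luminescence signal / Assay system: STAT1-lacking human U3A cells, STAT3 luciferase reporter / Incubation: compound pre-incubation 1 h before IL-6, then 6 h stimulation at 37 °C / Control set: IL-6-only high control / Read-out: % activation relative to IL-6 control / Probe or stimulus: Interleukin-6, 33 ng/mL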

**Q.** Which activation (% of control) does the source give for `COc1ccc(OP(C)(=O)Nc2cccc(Br)c2)cc1` (stereo not given) here?
**A.** inactive: 105%

**Q.** Which activation (% of control) does the source give for `COc1ccc(NP(C)(=O)Oc2ccccc2OC)cc1` (stereo not given) here?
**A.** inactive: 97.9%

**Q.** With `CN(C)CCOC(=O)C(O)(c1ccccc1)C1CCCCC1` (stereo not given) as the compound, how does the activation (% of control) read?
**A.** inactive: 100%

**Q.** Which activation (% of control) does the source give for `O=[N+]([O-])c1cc([N+](=O)[O-])c(NCC2CCS(=O)(=O)C2)c([N+](=O)[O-])c1` (stereo not given) here?
**A.** inactive: 99.3%

**Q.** Which activation (% of control) does the source give for `CCOP(C)(=S)SCC(=O)NC(C)(CC)C(=O)O` (stereo not given) here?
**A.** inactive: 101%

**Q.** With `CP(=O)(Nc1ccc2c(c1)OCCO2)Oc1ccccc1` (stereo not given) as the compound, how does the activation (% of control) read?
**A.** inactive: 95.9%

**Q.** For `Cc1ccccc1NP(C)(=O)Nc1ccccc1C`, which activation (% of control) is on record?
**A.** inactive: 101%

**Q.** For `CC(C)c1ccc(OP(C)(=O)Nc2ccc(SC(F)(F)F)cc2)cc1` (stereo not given), which activation (% of control) is on record?
**A.** inactive: 99.5%

**Q.** With `CP(=O)(Nc1ccccc1F)Oc1ccccc1` (stereo not given) as the compound, how does the activation (% of control) read?
**A.** inactive: 105%

**Q.** With `O=C(OCCN1CCN(CCOCc2ccccc2)CC1)C(O)(c1ccccc1)c1ccccc1` as the compound, how does the activation (% of control) read?
**A.** inactive: 94.5%

**Q.** Which activation (% of control) does the source give for `COc1ccc(OP(C)(=O)Nc2ccc(SC(F)(F)F)cc2)cc1` (stereo not given) here?
**A.** inactive: 107%

**Q.** For `CCOC(=O)c1ccc(NP(C)(=O)Oc2ccc(F)cc2)cc1` (stereo not given), which activation (% of control) is on record?
**A.** inactive: 98.9%

**Q.** Which activation (% of control) does the source give for `CCN(CC)CCCOC(=O)C(O)(c1ccccc1)C1CCCCC1` (stereo not given) here?
**A.** inactive: 96.7%

**Q.** Which activation (% of control) does the source give for `CP(=O)(Nc1ccccc1)Oc1ccc(F)cc1` (stereo not given) here?
**A.** inactive: 95.5%

**Q.** Which activation (% of control) does the source give for `Cc1cc(C)cc(OP(C)(=O)Nc2cccc(C(F)(F)F)c2)c1` (stereo not given) here?
**A.** inactive: 99.7%

**Q.** Which activation (% of control) does the source give for `COc1ccc(OP(C)(=O)Nc2ccccc2Br)cc1` (stereo not given) here?
**A.** inactive: 98.5%

**Q.** With `COc1ccccc1OP(C)(=O)Nc1ccc(C)c(C)c1` (stereo not given) as the compound, how does the activation (% of control) read?
**A.** inactive: 98.2%

**Q.** For `Cc1nc2ccc3ccccc3c2o1.O=[N+]([O-])c1cc([N+](=O)[O-])c(O)c([N+](=O)[O-])c1`, which activation (% of control) is on record?
**A.** inactive: 106%

**Q.** With `CP(=O)(Nc1ccc(Cl)cc1Cl)Oc1ccccc1` (stereo not given) as the compound, how does the activation (% of control) read?
**A.** inactive: 106%

**Q.** Which activation (% of control) does the source give for `CP(=O)(OCCOc1ccccc1)OCCOc1ccccc1` here?
**A.** inactive: 91.3%

**Q.** With `CN(C)CCOC(=O)C(O)(c1ccccc1)C1CCCC1` (stereo not given) as the compound, how does the activation (% of control) read?
**A.** inactive: 108%

**Q.** With `COc1ccc(OP(C)(=O)Nc2ccccn2)cc1` (stereo not given) as the compound, how does the activation (% of control) read?
**A.** inactive: 98.8%

**Q.** For `Cc1c(NP(C)(=O)Oc2ccc(C(C)C)cc2)c(=O)n(-c2ccccc2)n1C` (stereo not given), which activation (% of control) is on record?
**A.** inactive: 101%

**Q.** For `O=[N+]([O-])c1cc([N+](=O)[O-])c(Nc2ccccn2)c([N+](=O)[O-])c1`, which activation (% of control) is on record?
**A.** inactive: 86%

**Q.** With `CCc1ccc(OP(C)(=O)O)cc1` as the compound, how does the activation (% of control) read?
**A.** inactive: 99.4%

**Q.** With `CP(=O)(Nc1ccccn1)Oc1ccccc1` (stereo not given) as the compound, how does the activation (% of control) read?
**A.** inactive: 101%

**Q.** With `COc1ccccc1OP(C)(=O)Nc1ccc(C)cc1C` (stereo not given) as the compound, how does the activation (% of control) read?
**A.** inactive: 98.8%

**Q.** For `CCN(CC)CC(O)COC(=O)C(O)(c1ccccc1)C1CCCCC1` (stereo not given), which activation (% of control) is on record?
**A.** inactive: 102%

**Q.** With `COc1ccc(OP(C)(=O)Nc2ccc(Br)cc2)cc1` (stereo not given) as the compound, how does the activation (% of control) read?
**A.** inactive: 95.7%

**Q.** For `CP(=O)(Oc1ccccc1)N1CCOC1=O` (stereo not given), which activation (% of control) is on record?
**A.** inactive: 91.4%

**Q.** With `CCc1ccc(OP(C)(=O)Nc2cccnc2)cc1` (stereo not given) as the compound, how does the activation (% of control) read?
**A.** inactive: 111%

**Q.** With `COc1ccccc1OP(C)(=O)Nc1c(C)n(C)n(-c2ccccc2)c1=O` (stereo not given) as the compound, how does the activation (% of control) read?
**A.** inactive: 109%

**Q.** Which activation (% of control) does the source give for `CP(=O)(Nc1ccc(Cl)cc1)Oc1ccc(F)cc1` (stereo not given) here?
**A.** inactive: 100%

**Q.** For `COc1ccccc1OP(C)(=O)Nc1ccccc1Br` (stereo not given), which activation (% of control) is on record?
**A.** inactive: 93.7%

**Q.** Which activation (% of control) does the source give for `CC(C)(C)c1ccc(OP(C)(=O)O)cc1` here?
**A.** inactive: 99.4%

**Q.** Which activation (% of control) does the source give for `CN(C)C(=O)c1c([N+](=O)[O-])cc([N+](=O)[O-])cc1[N+](=O)[O-]` here?
**A.** inactive: 99.4%

**Q.** For `CP(=O)(OC12CC3CC(CC(C3)C1)C2)OC12CC3CC(CC(C3)C1)C2`, which activation (% of control) is on record?
**A.** inactive: 98%

**Q.** For `CCOC(=O)c1ccc(NP(C)(=O)Oc2ccc(Cl)cc2)cc1` (stereo not given), which activation (% of control) is on record?
**A.** inactive: 97.9%

**Q.** Which activation (% of control) does the source give for `CP(=S)(Nn1cnnc1)Oc1ccccc1` (stereo not given) here?
**A.** inactive: 93.5%

**Q.** For `COc1ccccc1OP(C)(=O)Nc1ccccc1` (stereo not given), which activation (% of control) is on record?
**A.** inactive: 101%

**Q.** Which activation (% of control) does the source give for `CP(=O)(Nc1ccccc1Br)Oc1ccccc1` (stereo not given) here?
**A.** inactive: 88.4%

**Q.** With `Cc1cccc(C)c1OP(C)(=O)Nc1ccc(SC(F)(F)F)cc1` (stereo not given) as the compound, how does the activation (% of control) read?
**A.** inactive: 105%

**Q.** With `CP(=O)(Oc1ccccc1)OC(c1ccccc1)C(F)(F)F` (stereo not given) as the compound, how does the activation (% of control) read?
**A.** inactive: 106%

**Q.** Which activation (% of control) does the source give for `CP(=O)(NC(=O)Nc1ccccc1)Oc1ccccc1` (stereo not given) here?
**A.** inactive: 100%

**Q.** With `Cc1cc(C)cc(OP(C)(=O)Nc2ccc(SC(F)(F)F)cc2)c1` (stereo not given) as the compound, how does the activation (% of control) read?
**A.** inactive: 107%

**Q.** With `CCOP(C)(=S)SCC(=O)NC(C)C(=O)O` (stereo not given) as the compound, how does the activation (% of control) read?
**A.** inactive: 102%

**Q.** Which activation (% of control) does the source give for `CCOC(=O)c1ccc(NP(C)(=O)Oc2ccc(OC)cc2)cc1` (stereo not given) here?
**A.** inactive: 93.6%

**Q.** With `CP(=O)(Nc1ccccn1)Oc1ccc(Cl)cc1` (stereo not given) as the compound, how does the activation (% of control) read?
**A.** inactive: 107%

**Q.** For `CCN(CC)CCCOC(=O)C(O)(c1ccccc1)c1ccccc1`, which activation (% of control) is on record?
**A.** inactive: 105%

**Q.** With `CC(C)(C)c1ccc(OP(C)(=O)Nc2ccc(SC(F)(F)F)cc2)cc1` (stereo not given) as the compound, how does the activation (% of control) read?
**A.** inactive: 94.5%

**Q.** For `Cc1cccc(C)c1OP(C)(N)=O` (stereo not given), which activation (% of control) is on record?
**A.** inactive: 90.8%

**Q.** With `O=[N+]([O-])c1ccc2c(c1)C=Nc1ccccc1O2` as the compound, how does the activation (% of control) read?
**A.** inactive: 106%

**Q.** With `CCOC(=O)c1ccc(NP(C)(=O)Oc2ccccc2)cc1` (stereo not given) as the compound, how does the activation (% of control) read?
**A.** inactive: 103%

**Q.** Which activation (% of control) does the source give for `COc1ccccc1OP(C)(=O)Nc1ccc(C)cc1` (stereo not given) here?
**A.** inactive: 94.3%

**Q.** With `Cc1ccc(NP(C)(=O)Oc2ccccc2)c(C)c1` (stereo not given) as the compound, how does the activation (% of control) read?
**A.** inactive: 105%

**Q.** For `COc1ccccc1OP(C)(=O)Nc1cc(Cl)ccc1C` (stereo not given), which activation (% of control) is on record?
**A.** inactive: 95.9%

**Q.** With `COc1ccc(OP(C)(=O)Nc2cccc(F)c2)cc1` (stereo not given) as the compound, how does the activation (% of control) read?
**A.** inactive: 101%

**Q.** With `Cc1cc(C)cc(OP(C)(N)=O)c1` (stereo not given) as the compound, how does the activation (% of control) read?
**A.** inactive: 95.7%

**Q.** With `CC1=NCCc2c1[nH]c1ccccc21.O=[N+]([O-])c1cc([N+](=O)[O-])c(O)c([N+](=O)[O-])c1` as the compound, how does the activation (% of control) read?
**A.** inactive: 101%

**Q.** For `Cc1cc(C)cc(OP(C)(=O)Nc2ccc(C)cc2C)c1` (stereo not given), which activation (% of control) is on record?
**A.** inactive: 98.7%

**Q.** Which activation (% of control) does the source give for `CCOC(=O)c1ccc(NP(C)(=O)Oc2cc(C)cc(C)c2)cc1` (stereo not given) here?
**A.** inactive: 100%

**Q.** Which activation (% of control) does the source give for `Cc1cc(C)cc(OP(C)(=O)Nc2ccccn2)c1` (stereo not given) here?
**A.** inactive: 101%

**Q.** Which activation (% of control) does the source give for `CP(=O)(Nc1cccc(Br)c1)Oc1ccccc1` (stereo not given) here?
**A.** inactive: 99.3%

**Q.** For `Cc1ccc(C)c(NP(C)(=O)Oc2ccccc2)c1` (stereo not given), which activation (% of control) is on record?
**A.** inactive: 100%

**Q.** With `O=[N+]([O-])c1cc([N+](=O)[O-])c(-n2nnc3ccccc32)c([N+](=O)[O-])c1` as the compound, how does the activation (% of control) read?
**A.** inactive: 104%

**Q.** Which activation (% of control) does the source give for `Cc1nc2ccc3ccccc3c2s1.O=[N+]([O-])c1cc([N+](=O)[O-])c(O)c([N+](=O)[O-])c1` here?
**A.** inactive: 93.5%

**Q.** For `COc1ccccc1OP(C)(=O)Nc1c(C)cccc1C` (stereo not given), which activation (% of control) is on record?
**A.** inactive: 99.5%

**Q.** With `CN1CCCCC1COC(=O)C1(O)c2ccccc2CCc2ccccc21` (stereo not given) as the compound, how does the activation (% of control) read?
**A.** inactive: 99.5%

**Q.** Which activation (% of control) does the source give for `CCCOc1ccc(NP(C)(=O)Oc2ccc(Cl)cc2)cc1` (stereo not given) here?
**A.** inactive: 107%

**Q.** Which activation (% of control) does the source give for `CP(=O)(Nc1ccc(SC(F)(F)F)cc1)Oc1ccccc1` (stereo not given) here?
**A.** inactive: 101%

Reference: PubChem BioAssay AID871 (The Scripps Research Institute Molecular Screening Center, 2007)
